Laboratory results reported in patent US20040044177A1, “Peptide compounds having improved binding affinity to somatostatin receptors” (priority 2002, published 2004).

Protein sequences, listed by entry. Tags and fused reporters are not part of them. Lines headed by an entry give the natural chain unless they say otherwise; changes in a name come on top.
UniProt P35346: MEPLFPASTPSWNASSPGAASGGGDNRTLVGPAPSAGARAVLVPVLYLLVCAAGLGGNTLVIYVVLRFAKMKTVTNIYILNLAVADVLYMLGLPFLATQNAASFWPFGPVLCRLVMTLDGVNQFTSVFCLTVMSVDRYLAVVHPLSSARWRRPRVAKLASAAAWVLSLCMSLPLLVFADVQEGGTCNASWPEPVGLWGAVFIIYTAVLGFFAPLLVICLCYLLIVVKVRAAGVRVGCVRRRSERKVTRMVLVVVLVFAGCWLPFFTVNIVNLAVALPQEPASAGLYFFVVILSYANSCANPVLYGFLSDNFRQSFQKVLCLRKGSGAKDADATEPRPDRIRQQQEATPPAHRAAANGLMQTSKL

Target: human somatostatin receptor subtype hsst5 (Homo sapiens, UniProt P35346)
Assay: In vitro binding affinity of peptide analogs (Table III), hsst5
Conditions: DOTA complexed with stable Y or In
Procedure: Table III, presents the binding affinity of the new compounds to human somatostatin receptor subtypes as compared to the compound, Y-DOTA-TATE, described by Srinivasan et al. (U.S. Pat. No. 5,830,431).
IC50 values were determined as described by Reubi et al. (Eur J Nuc Med 28:836-846, 2001).

C[C@@H](O)[C@H](NC(=O)[C@@H]1CSSC[C@H](NC(=O)[C@@H](Cc2ccccc2)NC(=O)CN2CCN(CC(=O)O)CCN(CC(=O)O)CCN(CC(=O)O)CC2)C(=O)N[C@@H](Cc2ccc(O)cc2)C(=O)N[C@H](Cc2c[nH]c3ccccc23)C(=O)N[C@@H](CCCCN)C(=O)N[C@@H]([C@@H](C)O)C(=O)N1)C(=O)O [compound 1, reference compound]
IC50: 187 nM
